The values that follow are results of earlier work, collected in article PMC1523333.

The data set addresses actin filament barbed end (Oryctolagus cuniculus) (UniProt P68135).

Regarding “Capping protein (CapZ) (from UniProt P13127)”, the Kd (usually the free concentration of one partner at which half of the binding sites on the other are occupied at equilibrium, for simple one-to-one binding) is 1 nM.
